Usually IC50 stands for the point on the concentration scale where inhibition reaches its midpoint.

This passage reports IC50 results from PMC7037682, “Herb–Drug Interaction of Red Ginseng Extract and Ginsenoside Rc with Valsartan in Rats” (Molecules, 2020).

Where two headings read alike, the source gives them in different places.

For data set [1], the target named is T1, OCT2 (Homo sapiens, UniProt O15244).
T1 sequence (O15244 1-555): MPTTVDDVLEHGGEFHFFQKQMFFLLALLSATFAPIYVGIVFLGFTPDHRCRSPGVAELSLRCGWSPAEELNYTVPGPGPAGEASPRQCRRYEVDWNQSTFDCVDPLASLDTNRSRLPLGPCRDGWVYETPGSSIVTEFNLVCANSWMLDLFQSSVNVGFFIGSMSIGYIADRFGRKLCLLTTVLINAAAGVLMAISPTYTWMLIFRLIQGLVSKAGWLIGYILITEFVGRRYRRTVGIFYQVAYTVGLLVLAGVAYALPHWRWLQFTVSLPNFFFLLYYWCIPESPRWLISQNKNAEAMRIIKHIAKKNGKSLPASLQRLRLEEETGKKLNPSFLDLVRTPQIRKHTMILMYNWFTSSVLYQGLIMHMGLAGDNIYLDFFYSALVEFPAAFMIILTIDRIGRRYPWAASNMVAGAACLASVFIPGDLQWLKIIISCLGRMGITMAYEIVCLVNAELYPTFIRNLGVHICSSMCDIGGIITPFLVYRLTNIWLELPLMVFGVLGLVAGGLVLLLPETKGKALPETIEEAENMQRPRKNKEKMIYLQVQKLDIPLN
As to conditions: read-out: IC50 OCT2, literature; cited from earlier work.

For data set [2], the target named is T2, OCT1 (Homo sapiens, UniProt O15245).
T2 sequence (O15245 1-554): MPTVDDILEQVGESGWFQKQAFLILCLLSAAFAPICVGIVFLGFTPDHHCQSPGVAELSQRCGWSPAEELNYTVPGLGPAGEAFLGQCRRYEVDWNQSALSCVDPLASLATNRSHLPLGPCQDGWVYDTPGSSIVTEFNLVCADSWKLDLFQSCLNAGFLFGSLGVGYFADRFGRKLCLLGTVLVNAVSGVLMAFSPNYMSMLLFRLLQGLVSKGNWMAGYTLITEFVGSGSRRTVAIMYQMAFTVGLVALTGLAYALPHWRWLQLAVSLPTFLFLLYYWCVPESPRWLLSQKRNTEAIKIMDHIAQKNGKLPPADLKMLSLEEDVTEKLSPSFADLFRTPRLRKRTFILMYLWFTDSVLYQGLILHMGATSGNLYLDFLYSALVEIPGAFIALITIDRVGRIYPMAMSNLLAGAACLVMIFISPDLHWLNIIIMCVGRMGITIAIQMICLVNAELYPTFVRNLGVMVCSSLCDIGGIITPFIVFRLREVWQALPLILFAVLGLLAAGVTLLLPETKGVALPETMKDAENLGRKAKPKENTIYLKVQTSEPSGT
To be noted: read-out: IC50 OCT1, literature; cited from earlier work.

Data set [3] addresses T1, OCT2. Briefly: Inhibition of OCT2-mediated [3H]MPP+ uptake in HEK293-OCT2 cells. To be noted: read-out: IC50 OCT2; HEK293-OCT2, 0.1 μM [3H]MPP+ uptake, 5 min. Here is the method: (§1) HEK293 cells overexpressing the OCT1, OCT2, OAT1, OAT3, OATP1B1, and OATP1B3 transporters (HEK293-OCT1, -OCT2, -OAT1, -OAT3, -OATP1B1, and -OATP1B3, respectively) and HEK293-mock cells (Corning Life Sciences; Woburn, MA, USA) were used and characterized as previously described.
(§2) HEK293 cells overexpressing drug transporters and HEK293-mock cells were seeded in poly-D-lysine-coated 96-well plates at a density of 10^5 cells/well and were cultured in DMEM supplemented with 10% FBS, 5 mM non-essential amino acids, and 2 mM sodium butyrate in a humidified atmosphere with 8% CO2 at 37 °C.
(§3) To examine the effects of ginsenosides and typical inhibitors on transporter activity, aliquots (100 μL) of HBSS containing the probe substrate and ginsenosides or typical inhibitors were added to the cells after aspirating pre-incubated HBSS. The concentrations and probe substrates were as follows: 0.1 μM [^3H]MPP^+ for OCT1 and OCT2, 0.1 μM [^3H]PAH for OAT1, 0.1 μM [^3H]ES for OAT3 and OATP1B1, and 0.1 μM [^3H]EG for OATP1B3. […] Then the uptake of probe substrates into HEK293-mock cells and HEK293-OCT1, -OCT2, -OAT1, -OAT3, -OATP1B1, and -OATP1B3 cells in the presence and absence of typical inhibitor or each ginsenoside with previously described concentration range was measured for 5 min. […] The radioactivity of the probe substrates in the cells was determined using a liquid scintillation counter. […]

Data set [4] addresses T2, OCT1. Description: Inhibition of OCT1-mediated [3H]MPP+ uptake in HEK293-OCT1 cells. To be noted: read-out: IC50 OCT1; HEK293-OCT1, 0.1 μM [3H]MPP+ uptake, 5 min. Here is the method:
as §1, §2, §3

As for “Triethylammonium [TEA, reference compound]”, the IC50 is 2050 µM in data set [1], 1400 to 7400 µM in data set [2], 1400 µM in data set [3] and 1180 µM in data set [4].
